The record followed here is patent publication US12492224B2, “Bicyclic peptide ligands specific for PD-L1” (BicycleTx Limited, priority 2018, dated 2025).

Amino acid sequences for entries named in this document (tags omitted). Residues count along the entry.
UniProt Q9NZQ7, 19-290: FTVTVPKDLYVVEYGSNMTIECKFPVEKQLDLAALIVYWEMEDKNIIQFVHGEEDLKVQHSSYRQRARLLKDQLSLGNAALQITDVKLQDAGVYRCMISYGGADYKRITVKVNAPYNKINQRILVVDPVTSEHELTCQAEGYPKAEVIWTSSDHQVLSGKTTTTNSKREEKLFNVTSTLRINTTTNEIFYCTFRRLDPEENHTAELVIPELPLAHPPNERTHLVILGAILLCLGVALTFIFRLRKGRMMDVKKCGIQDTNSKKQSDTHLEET

In assay [1] the target is T1, human PD-L1 (Homo sapiens, UniProt Q9NZQ7).
T1 construct: purchased Sino Biologicals or R&D systems
Put plainly: PD-L1 Direct Binding Assay (fluorescence polarisation), human. How it is done:
Affinity of the peptides of the invention for human PD-L1 (Ki) was determined using a fluorescence polarisation assay, in accordance with the methods disclosed in WO2016/067035. Peptides of the invention with a fluorescent tag (either fluorescein, SIGMA or Alexa Fluor488™, Fisher Scientific) were diluted to 2.5 nM in PBS with 0.01% tween 20 or 50 mM HEPES with 100 mM NaCl and 0.01% tween pH 7.4 (both referred to as assay buffer). This was combined with a titration of protein in the same assay buffer as the peptide to give 1 nM peptide in a total volume of 25 μL in a black walled and bottomed low bind low volume 384 well plates, typically 5 μL assay buffer, 10 μL protein then 10 μL fluorescent peptide. One in two serial dilutions were used to give 12 different concentrations with top concentrations ranging from 500 nM for known high affinity binders to 10 μM for low affinity binders and selectivity assays. Measurements were conducted on a BMG PHERAstar FS equipped with an “FP 485 520 520” optic module which excites at 485 nm and detects parallel and perpendicular emission at 520 nm. The PHERAstar FS was set at 25° C. with 200 flashes per well and a positioning delay of 0.1 second, with each well measured at 5 to 10 minute intervals for 60 minutes. The gain used for analysis was determined for each tracer at the end of the 60 minutes where there was no protein in the well. Data was analysed using Systat Sigmaplot version 12.0. mP values were fit to a user defined quadratic equation to generate a Kd value: f=ymin+(ymax−ymin)/Lig*((x+Lig+Kd)/2−sqrt((((x+Lig+Kd)/2)^2)−(Lig*x))). “Lig” was a defined value of the concentration of tracer used.
In general terms: Fluorescence polarisation rises when a labelled molecule tumbles more slowly, as on binding a larger partner.

Assay [2] concerns the target T1, human PD-L1. Put plainly: PD-L1 SPR Binding Assay (Biacore), human. Conditions: 25° C. How it is done: The protein was desalted to remove uncoupled biotin using spin columns into PBS. For analysis of binding, a Biacore 3000 instrument was used utilizing a CM5 sensor chip (GE Healthcare). Streptavidin was immobilized on the chip using standard amine-coupling chemistry at 25° C. with HBS-N (10 mM HEPES, 0.15 M NaCl, pH 7.4) as the running buffer. The carboxymethyl dextran surface was activated with a 12 min injection of a 1:1 ratio of 0.4 M 1-ethyl-3-(3-dimethylaminopropyl) carbodiimide hydrochloride (EDC)/0.1 M N-hydroxy succinimide (NHS) at a flow rate of 10 μl/min. For capture of streptavidin, protein was diluted to 0.1 mg/ml in 10 mM sodium acetate (pH 4.5) and captured by injecting 70 μl onto the activated chip surface. Residual activated groups were blocked with a 7 min injection of 1 M ethanolamine (pH 8.5). Biotinylated PD-L1 stock was diluted 1:100 in HBS-N and captured on one flow cell at 5 μl/min to a level of 1000-1300 RU. Buffer was changed to PBS/0.05% Tween 20 and a dilution series of the peptides was prepared in this buffer with a final DMSO concentration of 0.5%. The top concentrations were 200 nM or 500 nM with 6 2-fold dilutions. The SPR analysis was run at 25° C. at a flow rate of Flow rate 50 μl/min with 60 seconds association and 400 seconds disassociation. Data were corrected for DMSO excluded volume effects. All data were double-referenced for blank injections and reference surface using standard processing procedures and data processing and kinetic fitting were performed using Scrubber software, version 2.0c (Biologic Software). Data were fitted using mass transport model allowing for mass transport effects where appropriate.

Setting [3] is: Human Direct Binding Assay, fluorescence polarisation, read-out: Kd.

Usually Kd stands for the equilibrium constant for the complex coming apart. With RENCSDEWLTMCQKLHLCA[Sar]6[KFI] [BCY568], the Kd on human PD-L1 [1] (setting [3]) was 79 nM.
For the substance “[FI][B-Ala][Sar]5ACSDQWMQMCSKLTCA [BCY562]”, on human PD-L1 [1] (setting [3]), the Kd was 935 nM.
The same measure, in the same setting: with “REECSSSWLTMCQKLHLCA[Sar]6[KFI] [BCY3812]” the figure was 65.3 nM.
With [Ac]SDKCSAEWLTMCQKLHLC [BCY10947], the Kd at human PD-L1 [2] is 31.1 nM.
“[FI][B-Ala][Sar]5ACSWSWLTMCQKLHLCA [BCY552]”: at human PD-L1 [1] (setting [3]), the Kd turned out to be 121 nM.
As to “[Ac]SDKC[AlloThr]AGWLTMCQKLHLC [BCY10952]”, the Kd on human PD-L1 [2] is 108 nM.
At human PD-L1 [2], [Ac][dS]DKCSAGWLTMCQKLHLCA [BCY10051] registered a Kd of 20.7 nM.
Turning to ADVCSPQWLTMCQKLHLCA[Sar]6[KFI] [BCY573], the Kd at human PD-L1 [1] (setting [3]) was determined as 30.2 nM.
The same measure, in the same setting: with “[FI][B-Ala][Sar]5ACSPEWKNMCITLNLCA [BCY561]” the figure was 365 nM; with “FI-(B-Ala)-Sar5-ACSWSWLTMCQKLHLCA [73-07-00-N001]”, 16.9 nM.
Consider [Ac]CSAGWLTMCKQLNLCPSH [BCY10942], for which the affinity at human PD-L1 [2], expressed as Kd, was 24.1 nM.
On the same count and under the same terms, with [Ac]SDKCSAGWLTMCKQLNLC-COOH [BCY10938] the figure was 12.2 nM; with SDKCS[dA]GWLTMCQKLHLCA [BCY10060], 229 nM; with SDKCSAGWLTMCQ[HSer]LHLCA [BCY10069], 92 nM.
Take KELCSPSWRTMCQKLHLCA[Sar]6[KFI] [BCY578]: the Kd at human PD-L1 [1] (setting [3]) worked out at 55.1 nM.
With “[FI][B-Ala][Sar]5ACSTSWMNLCKQLNLCA [BCY553]”, the Kd at human PD-L1 [1] (setting [3]) came to 495 nM.
For the substance [Ac]SDKCSAGWLTMCQKLH[Cpa]C [BCY10956], at human PD-L1 [2], the Kd came to 24.9 nM.
Same read-out and setting: under [Ac]DKCS[Aad]GWLTMCQKLHLC [BCY11818] stands 30.1 nM.
Regarding [FI]G[Sar]5ACSSSWTNMCVQLGLCA [BCY3809], on human PD-L1 [1] (setting [3]), the Kd was 57.4 nM.
On human PD-L1 [2], SDKCS[HSer]GWLTMCQKLHLCA [BCY10061] came in with a Kd of 33.7 nM.
Still for that read-out and setting: under [Ac]SDK-(SEQ ID NO: 42)-P [BCY10935] stands 14.9 nM; under [Ac]SDKCSAGWLTMC[Aad]KLHLC [BCY10946], 13.1 nM.
For ACSSSWTNMCVQLGLCA[Sar]6[KFI] [BCY3810], the Kd on human PD-L1 [1] (setting [3]) amounted to 32.9 nM.
Turning to [Ac]SDKCSAGWLTMCQRLHLC [BCY10078], the Kd on human PD-L1 [2] came out at 12.2 nM.
The substance “[Ac]SDK-(SEQ ID NO: 42)-PS-COOH [BCY10936]” came in with a Kd at human PD-L1 [2] of 13 nM.
The same measure, in the same setting: with SDKCSAGWLTMCQKL[dA]LCA [BCY10072] the figure was 22.5 nM; with SD[HSer]CSAGWLTMCQKLHLCA [BCY10053], 47.5 nM.
Regarding AERCSESWSTMCQKLHLCA[Sar]6[KFI] [BCY576], the Kd on human PD-L1 [1] (setting [3]) was determined as 124 nM.
SDKCSAGWLTMCQKLHLCA [BCY3835] displayed a Kd at human PD-L1 [2] of 30.1 nM.
With KPKCSPSWLTMCQKLHLCA[Sar]6[KFI] [BCY580], the Kd on human PD-L1 [1] (setting [3]) was determined as 51 nM.
The same measure, in the same setting: under APVCSPGWLTMCQKLHLCA[Sar]6[KFI] [BCY572] stands 45.5 nM.
In turn, Ac-SDKCSAGWLTMCQKLHLC [BCY11832] had a Kd at human PD-L1 [2] of 68.4 nM.
As to “[FI][B-Ala][Sar]5ACTPNWNAMCLKLNLCA [BCY555]”, the Kd at human PD-L1 [1] (setting [3]) stood at 748 nM.
Turning to VERCSDGWLTMCQKLHLCA[Sar]6[KFI] [BCY567], on human PD-L1 [1] (setting [3]), the Kd worked out at 16.4 nM.
Regarding QQECSNSWLTMCQKLHLCA[Sar]6[KFI] [BCY569], the Kd on human PD-L1 [1] (setting [3]) came to 83.9 nM.
Take ERVCSDSWKTMCQKLHLCA[Sar]6[KFI] [BCY575]: at human PD-L1 [1] (setting [3]), the Kd is 134 nM.
The same measure, in the same setting: under GNKCSPSWLTMCQKLHLCA[Sar]6[KFI] [BCY574] stands 16.9 nM.
On to [Ac]SDKCSAGWLTMCQKLHLCPSH [BCY10943], for which, on human PD-L1 [2], the Kd is 7.76 nM.
Same read-out and setting: with [Ac]SDKCS[Aad]GWLTMCQKLHLC [BCY10961] the figure was 7.42 nM; with [Ac]SDRCSAGWLTMCQKLHLC [BCY10076], 14.5 nM.
ACSWSWLTMCKQLNLCPSH[Sar]6[KFI] [BCY581]: at human PD-L1 [1] (setting [3]), the Kd is 24.2 nM.
Substance Ac-SDKCSAGWLTMCLKLHLCPSH [BCY11830] gave a Kd on human PD-L1 [2] of 24.1 nM.
On to KELCSPSWRNMCQKLHLCA[Sar]6[KFI] [BCY579], for which the Kd at human PD-L1 [1] (setting [3]) was 58.6 nM.
As to [Ac]DKCS[Aad]GWLTMCLKLHLC [BCY11823], the Kd on human PD-L1 [2] is 17.7 nM.
[Ac]KCS[Aad]GWLTMCQKLHLC [BCY11819]: the Kd on human PD-L1 [2] was 27.3 nM.
Still for that read-out and setting: with [Ac]KCSAGWLTMCKQLNLCPSH [BCY10941] the figure was 3.67 nM.
Same read-out and setting: with SDKCSAGWLTMCLKLHLCA [BCY10067] the figure was 5.51 nM.
As to “[FI][B-Ala][Sar]5ACSAEWRNMCVELNLCA [BCY560]”, the Kd at human PD-L1 [1] (setting [3]) is 492 nM.
Consider [Ac]DKCSAGWLTMCKQLNLCPSH [BCY10940], for which, at human PD-L1 [2], the Kd was 2.32 nM.
As for “FI-G-Sar5-ACPDPHNICHLWCA [reference compound]”, at human PD-L1 [1] (determined using the direct binding protocol, read-out: Kd of fluorescent competition tracer), the Kd was determined as 68.8 nM.
For “Ac-SDKCS[Aad]GWL[3HyV]MCLKLHLC [BCY11829]”, on human PD-L1 [2], the Kd was found to be 43.6 nM.
On the same count and under the same terms, with [Ac]SDKCSAGWLTMC[Cpa]KLHLC [BCY10950] the figure was 8.73 nM.
As for “[FI][B-Ala][Sar]5ACSESWSNMCVSLGLCA [BCY559]”, the Kd at human PD-L1 [1] (setting [3]) was found to be 438 nM.
The substance [Ac]SEKCS[Aad]GWLTMCQKLHLC [BCY11820] yielded an equilibrium dissociation constant (Kd) on human PD-L1 [2] of 17.4 nM.
As to [Ac]SEKCSAGWLTMCQKLHLC [BCY10951], at human PD-L1 [2], the Kd is 7.28 nM.
Still for that read-out and setting: under SDKCSA[HSer]WLTMCQKLHLCA [BCY10057] stands 31.8 nM.
Consider “ACSWSWLTMCQKLDLCDHEN[Sar]6[KFI] [BCY582]”, for which, at human PD-L1 [1] (setting [3]), the Kd stood at 176 nM.
In turn, SDKCSAGWLT[HPhe]CQKLHLCA [BCY10064] showed a Kd at human PD-L1 [2] of 20.5 nM.
On the same count and under the same terms, with [Ac]SDK-(SEQ ID NO: 51) [BCY10954] the figure was 19.4 nM.
AQTCSPEWLTMCQKLHLCA[Sar]6[KFI] [BCY571]: at human PD-L1 [1] (setting [3]), the Kd worked out at 125 nM.
As to [Ac]SDKCS[Aad]GWLTMCLKLHLC [BCY11822], the affinity at human PD-L1 [2], expressed as Kd, was 16.5 nM.
Ac-ACSAGWLTMCQKLHLCPSH [BCY11833] registered a Kd on human PD-L1 [2] of 32.5 nM.
Still for that read-out and setting: with [Ac]SDKCSAGWLTMCQKLHLCA [BCY10075] the figure was 28.6 nM; with [Ac]EKCS[Aad]GWLTMCQKLHLC [BCY11821], 17.5 nM; with “[Ac]SDKCSAG[7-AzaW]LTMCQKLHLC [BCY10945]”, 147 nM.
Still for that read-out and setting: under [Ac]SDK-(SEQ ID NO: 42)-PS [BCY10934] stands 10.9 nM; under [Ac]SDKCSA[Aad]WLTMCQKLHLC [BCY10948], 97.5 nM.
For the substance “[FI]G[Sar]5KELCSPSWRTMCQKLHLCA [BCY3811]”, the Kd at human PD-L1 [1] (setting [3]) was 54.9 nM.
“[Ac]SDK-(SEQ ID NO: 42)-P-COOH [BCY10937]” registered a Kd at human PD-L1 [2] of 5.03 nM.
Still for that read-out and setting: with [Ac]SDKCSAGWLTMCEKLHLC [BCY10949] the figure was 18.7 nM.
In the case of SGKCSNSWLTMCQKLHLCA[Sar]6[KFI] [BCY577], on human PD-L1 [1] (setting [3]), the Kd stood at 51.5 nM.
The same measure, in the same setting: under AGSCSPAWLTMCQKLHLCA[Sar]6[KFI] [BCY570] stands 80.2 nM.
On the same count and under the same terms, under “[FI][B-Ala][Sar]5ACSESWRNMCVQLNLCA [BCY3808]” stands 43.6 nM.
Same read-out and setting: with SDKCSAGWLTMCQKLHLCA[Sar]6[KFI] [BCY566] the figure was 12.6 nM.
The substance SDKCSAGWLTMCVQLGLCA [BCY10065] showed a Kd at human PD-L1 [2] of 34.1 nM.
Same read-out and setting: under “[Ac]SD[HArg]CS[Aib]GWLT[hPhe]CLKL[Aib]LCPSH [BCY10944]” stands 10.7 nM.
With “QAEKCSWSWLNMCQKLHLCA[Sar]6[KFI] [BCY8210]”, at human PD-L1 [1] (setting [3]), the Kd stood at 9.97 nM.
